Tested on: uveoretinitis
Test: Human trials with oral S-antigen
Assay type: in vivo, humans
Description: The above animal models can be used to establish the utility of the present invention in mammals (including humans). […] All of these human trials were attempted based on animal data using the appropriate disease model.

## S-antigen: oral S-antigen used in human uveoretinitis trials
  results for uveoretinitis: very encouraging results

Source: patent US6645504B1, “Bystander suppression of type I diabetes by oral administration of glucagon” (AutoImmune Inc., priority 1987, dated 2003)
